Experimental data as given in BindingDB's records for doi:10.1021/jm030825u (Universit&#224, 2003).

By UniProt entry, the sequences of proteins in these tests, tags left out.
UniProt P35368, whole entry: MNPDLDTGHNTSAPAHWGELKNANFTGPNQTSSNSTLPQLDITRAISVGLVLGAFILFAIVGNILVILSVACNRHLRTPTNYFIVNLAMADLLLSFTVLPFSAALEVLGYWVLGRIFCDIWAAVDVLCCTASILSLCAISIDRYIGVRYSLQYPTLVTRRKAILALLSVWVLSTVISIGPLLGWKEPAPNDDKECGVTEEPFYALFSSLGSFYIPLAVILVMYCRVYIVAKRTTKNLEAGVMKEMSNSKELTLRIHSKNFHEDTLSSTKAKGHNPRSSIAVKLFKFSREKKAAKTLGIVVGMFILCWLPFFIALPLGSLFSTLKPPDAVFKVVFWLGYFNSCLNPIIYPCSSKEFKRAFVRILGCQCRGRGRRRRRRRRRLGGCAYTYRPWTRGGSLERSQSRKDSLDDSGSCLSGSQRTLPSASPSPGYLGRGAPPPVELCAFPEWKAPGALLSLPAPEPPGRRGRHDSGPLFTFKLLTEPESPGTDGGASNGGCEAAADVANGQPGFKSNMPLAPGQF

Target: Alpha-1B adrenergic receptor (Homo sapiens, UniProt P35368)
Assay: Inhibition of [3H]-prazosin binding to cloned human Alpha-1B adrenergic receptor in CHO cells (chinese hamster ovary cells)

## COc1ccccc1N1CCN(CCCNC(=O)c2cccc3c(=O)c(C)c(-c4ccccc4)oc23)CC1 [3-Methyl-4-oxo-2-phenyl-4H-chromene-8-carboxylic acid {3-[4-(2-methoxy-phenyl)-piperazin-1-yl]-propyl}-amide]
  Ki: 3.9 nM
